For this data set, the target named is CYP1A2 (Homo sapiens, UniProt P05177). Put plainly: TPB15 metabolism in human liver microsomes with CYP1A2 inhibitor. The data set is classed as in vitro ADME. Particulars: inhibition of TPB15 metabolism, HLM, 90 min, α-Naphthoflavone 10 μM (CYP1A2). Here is the method: The specific inhibitors of P450 were employed to evaluate the metabolic phenotype of TPB15, and the metabolic enzymes corresponding to each inhibitor and the system concentration are shown in Table 2. The specific procedure was as follows: a total of 0.5 μL of the substrate TPB15 and 0.5 μL of each specific inhibitor were mixed with 449 μL of human liver microsomes, and the mixture was incubated at 37 °C for 10 min. Subsequently, 50 μL of NADPH with a concentration of 10 mM in PBS were introduced to initiate the reaction. After 90 min, 50 μL of the reaction mixture were transferred to a 150 μL ice-cold methanol solution containing an internal standard to terminate the reaction. The mixture was vortexed for 2 min and then centrifuged at 4 °C at 14,800 rpm for 10 min. A volume of 130 μL of the supernatant was then transferred to a new EP tube, which was centrifuged again at 4 °C at 14,800 rpm for another 10 min. Finally, 5 μL of the supernatant were injected for the determination of substrate TPB15 concentration. Three parallel samples were prepared for each time point. The experiment also included a positive control group and a negative control group. In the positive control group, substrate TPB15 was incubated with human liver microsomes for 90 min without the addition of inhibitors.
For orientation: Liver microsomes are a subcellular fraction often used to study metabolism.

Sequences of proteins named here, by UniProt entry; tags and fusion partners are left off.
UniProt P05177, whole entry: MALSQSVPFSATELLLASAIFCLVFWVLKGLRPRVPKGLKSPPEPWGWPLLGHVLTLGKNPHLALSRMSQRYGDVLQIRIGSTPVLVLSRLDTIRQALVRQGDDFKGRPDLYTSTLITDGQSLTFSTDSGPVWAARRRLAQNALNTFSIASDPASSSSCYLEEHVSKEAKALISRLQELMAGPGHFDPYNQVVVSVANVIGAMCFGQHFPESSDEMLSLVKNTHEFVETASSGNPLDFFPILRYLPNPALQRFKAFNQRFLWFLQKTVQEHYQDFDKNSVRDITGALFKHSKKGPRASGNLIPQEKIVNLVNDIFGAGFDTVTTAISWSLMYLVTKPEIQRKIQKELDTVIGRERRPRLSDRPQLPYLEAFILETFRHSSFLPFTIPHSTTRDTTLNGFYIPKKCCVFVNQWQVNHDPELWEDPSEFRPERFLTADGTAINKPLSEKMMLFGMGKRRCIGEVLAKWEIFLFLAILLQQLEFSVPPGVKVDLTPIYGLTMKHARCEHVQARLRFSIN

In the case of `O=c1cc(-c2ccccc2)oc2c1ccc1ccccc12` [α-Naphthoflavone], the “Inhibitor Rate (%)” value is listed as 5.58%.
